# Values quoted from earlier work as cited in patent publication US20180110743A1, “COMPOSITIONS AND METHODS FOR TREATING HEPATOCELLULAR CARCINOMA” (Northwestern University, priority 2015, published 2018).
# System: activated P glycoprotein
# Settings: background statement; cited from earlier work
substance,measurement,value
"Amonafide [AMN, reference compound]",substrate for multi-drug resistance drug efflux pumps,not a substrate
